According to US20230104728A1:

Target: Her2 (UniProt P04626)
Assay: cell-based or functional assay

Trastuzumab emtansine (antibody)
EC50 of in vitro cytotoxicity (MTS cell viability assay) on JIMT-1 cells: 3.74 mg/L
